{
  "source": "ChEMBL document CHEMBL1126282",
  "about": "“Synthesis and conformational properties of the lanthionine-bridged opioid peptide [D-AlaL2,AlaL5]enkephalin as determined by NMR and computer simulations” (J Med Chem, 1992)",
  "key": {"Mus musculus": {"organism": "Mus musculus", "assay": "Potency to inhibit electrically induced contraction of mouse vas deferens(MVD) relative to [Leu5]-enkephalin."}, "Cavia porcellus": {"organism": "Cavia porcellus", "assay": "Potency to inhibit electrically induced contraction of guinea pig ileum(GPI) relative to [Leu5]-enkephalin."}},
  "data": [
    {"smiles": "CC(C)C[C@H](NC(=O)[C@H](Cc1ccccc1)NC(=O)CNC(=O)CNC(=O)[C@@H](N)Cc1ccc(O)cc1)C(=O)O", "note": "[ENKEPHALIN]", "values": [
      {"measurement": "Relative potency", "setting": "Mus musculus", "result": 1},
      {"measurement": "Relative potency", "setting": "Cavia porcellus", "result": 1}
    ]}
  ]
}
